Results on four compounds are retold here after PMC9414910, “Optimized ^68Ga-Labeled Urea-Based PSMA-Targeted PET Tracers for Prostate Cancer” (Pharmaceuticals, 2022).

This data set concerns 22Rv1 tumor-bearing mice. The data set can be described thus: Biodistribution in 22Rv1 tumor-bearing mice. The following applies: 0.74 MBq, n = 3; for Uptake Heart, Mean: 30 min p.i. The procedure:
The animal studies were approved by the institutional animal care and use committee of the Chinese PLA General Hospital. Healthy male ICR mice were injected with either a novel radiotracer (37 MBq in 150 μL) or saline (150 μL) for the radiotoxicity evaluation. […] Biodistribution and micro-PET studies were performed on 22Rv1 and PC-3 xenograft models, and 2-PMPA was used as the PSMA blocker (all details are shown in the Supplementary Materials).
BALB/c nude mice (male, 4-6 weeks) were inoculated subcutaneously with […]
100 mm3, the mice underwent biodistribution study and Micro-PET imaging.
The 22Rv1 tumor-bearing mice were injected with each novel radiotracer or […]
[…] Mice were sacrificed at different time points p.i. (10 min, 30 min, 60 min), tumors and interested organs were harvested, weighed and measured by a γ-counter, the results were expressed as the percentage of injected dose per gram (ID%/g).
Table S1. Uptake values for ex vivo tissues of [ 68Ga]Ga-PSMA-Q (0.74 MBq/mice) in 22Rv1 tumor-bearing mice (10, 30 and 60 min p.i., n = 3/time point).

In the case of `O=C([O-])CN1CCN(CC(=O)[O-])CCN(CC(=O)NCC2CCC(C(=O)NC(Cc3ccncc3)C(=O)NCCCCC(NC(=O)NC(CCC(=O)O)C(=O)O)C(=O)O)CC2)CCN(CC(=O)O)CC1.[68Ga+3]` (stereo not shown) [[^68Ga]Ga-PSMA-4PY], the “Uptake Kidney, Mean” value (60 min p.i.) was determined as 1.85 ID%/g.

As for `O=C([O-])CN(CCN(CC(=O)[O-])Cc1cc(CCC(=O)NCCCCCC(=O)NCCCC[C@H](NC(=O)N[C@@H](CCC(=O)O)C(=O)O)C(=O)O)ccc1[O-])Cc1cc(CCC(=O)O)ccc1[O-].[68Ga+3].[OH3+]` [[^68Ga]Ga-PSMA-11, reference compound], the “Uptake Heart, Mean” value came to 1.01 ID%/g.

Consider `O=C([O-])CN1CCN(CC(=O)[O-])CCN(CC(=O)NCCCCC(=O)NC(Cc2cnc3ccccc3c2)C(=O)NCCCCC(NC(=O)NC(CCC(=O)O)C(=O)O)C(=O)O)CCN(CC(=O)O)CC1.[68Ga+3]` (stereo not shown) [[^68Ga]Ga-PSMA-Q-1], for which the “Uptake Heart, Mean” value came to 1.01 ID%/g.

As to `O=C([O-])CN1CCN(CC(=O)[O-])CCN(CC(=O)NCc2ccc(C(=O)NC(Cc3cnc4ccccc4c3)C(=O)NCCCCC(NC(=O)NC(CCC(=O)O)C(=O)O)C(=O)O)cc2)CCN(CC(=O)O)CC1.[68Ga+3]` (stereo not shown) [[^68Ga]Ga-PSMA-Q-3], the “Uptake Liver, Mean” value (60 min p.i.) is given as 1.01 ID%/g.
